The source of these data is patent US20090202660A1, “Agents and Methods for Osteogenic Oxysterols Inhibition of Oxidative Stress on Osteogenic Cellular Differentiation” (The Regents of the University of California, priority 2005, published 2009).

This assay relates to M2 cells. As to the kind of experiment: Oxidative stress (XXO or MM-LDL) inhibition of osteoblastic differentiation of M2 cells. Type of assay: cell-based, mouse. The note with it: pretreatment 48 hours, 250 ng/ml; data not shown.

B1: rhBMP2: recombinant human BMP2 from R&D Systems (protein, UniProt P12643 283-396, looked up)
Bone morphogenetic protein 2: QAKHKQRKRLKSSCKRHPLYVDFSDVGWNDWIVAPPGYHAFYCHGECPFPLADHLNSTNHAIVQTLVNSVNSKIPKACCVPTELSAISMLYLDENEKVVLKNYQDMVVEGCGCR
For B1, the “protection of osteogenic differentiation from oxidative stress by pretreatment” value is recorded as “protected from the adverse effects of oxidative stress”.
